According to PubChem BioAssay AID624204 (Sanford-Burnham Center for Chemical Genomics, 2012):
The list shows a part of the results, in another mix than the full data. Some results for these compounds are left out of this collection, so the calls shown say nothing about other tests. Activity calls are given as the source filed them.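 Rule for the calls: active = inhibition at least 30% at 10 µM, raw YFP signal under a set limit, fluorescence ratio 0.5 to 1.5; inactive = the rest.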

Sequences of proteins named here, by UniProt entry; tags and fusion partners are left off. Residues count along the entry.
UniProt Q9P0U3, 419-644 limits assumed: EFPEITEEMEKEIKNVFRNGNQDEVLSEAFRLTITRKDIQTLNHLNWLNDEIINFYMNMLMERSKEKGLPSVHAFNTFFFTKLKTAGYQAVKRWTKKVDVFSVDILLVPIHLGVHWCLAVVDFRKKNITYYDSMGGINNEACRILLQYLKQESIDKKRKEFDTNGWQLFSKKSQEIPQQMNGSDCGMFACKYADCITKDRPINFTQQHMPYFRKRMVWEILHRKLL

These molecules were tested against Sentrin-specific protease 1 (Homo sapiens) (UniProt Q9P0U3) (assay: human SENP1 catalytic domain inhibitors, primary screen, biochemical, FRET, uHTS (AID 624204;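 note: 0% = enzyme with DMSO and 100% = no enzyme wells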)). Details: recombinant SENP1 catalytic domain, CyPet-SUMO1-YPet FRET cleavage; at 10 µM; active compounds read high.

| SMILES | inhibition |
| --- | --- |
| O=C(NCC1(N2CCCCC2)CCCCC1)c1cccc(Cl)c1 | inactive: -0.981% |
| COc1cccc(C(=O)NCC2(N3CCCCC3)CCCCC2)c1 | inactive: 1.8% |
| COc1ccc(Cl)cc1C(=O)NCC1(N(C)C)CCCCC1 | inactive: 1.72% |
| COc1cc(C(=O)NCC2(N(C)C)CCCCC2)c([N+](=O)[O-])cc1OC | inactive: -1.61% |
| CN(C)C1(CNC(=O)c2ccc(Br)cc2)CCCCC1 | inactive: 0.441% |
| CN(C)c1cccc(C(=O)NCC2(N(C)C)CCCCC2)c1 | inactive: 0.763% |
| CC(C)Oc1ccc(C(=O)NCC2(N(C)C)CCCCC2)cc1 | inactive: 0.686% |
| O=C(OCCN1CCCC1)C(O)(c1ccccc1)c1ccccc1 | inactive: -3.18% |
| COc1ccc(Br)c(C(=O)NCC2(N3CCCCC3)CCCCC2)c1 | inactive: -28.4% |
| C=C(C)C#CC(O)(C(=O)OC1CCN(C)CC1)c1ccccc1 (stereo unspecified) | inactive: 0.642% |
| O=C(OC1CN2CCC1CC2)C(CO)(c1ccccc1)c1ccccc1 (stereo unspecified) | inactive: 0.828% |
| Cc1ccc(C(=O)NCC2(N3CCCCC3)CCCCC2)cc1 | inactive: -21.8% |
| CC(C)N1C(=O)CC2(CCN(CCOC(=O)C(O)(c3ccccc3)c3ccccc3)CC2)C1=O | inactive: 1.01% |
| CCN(CC)CC(C)C(C)OC(=O)C(O)(c1ccccc1)c1ccccc1 (stereo unspecified) | inactive: 1.45% |
| COc1cc(SC)ccc1C(=O)NCC1(N(C)C)CCCCC1 | inactive: 1.89% |
| CN1[C@@H]2CC[C@H]1CC(OC(=O)C(O)(c1ccccc1)c1ccccc1)C2 (stereo partly specified) | inactive: 0.518% |
| O=C(NCC1(N2CCCCC2)CCCCC1)c1cc([N+](=O)[O-])ccc1Cl | inactive: 11.8% |
| CCN1CCCC(OC(=O)C2(O)c3ccccc3C=Cc3ccccc32)C1 (stereo unspecified) | inactive: 2% |
| Cc1cc(C(=O)NCC2(N3CCCCC3)CCCCC2)ccc1[N+](=O)[O-] | inactive: -0.452% |
| O=C(NCC1(N2CCCCC2)CCCCC1)c1cccc(Br)c1 | inactive: 1.31% |
| COc1ccc(C(=O)NCC2(N(C)C)CCCCC2)cc1 | inactive: 1.64% |
| C=CCN1CCN(CCOC(=O)C(O)(c2ccccc2)c2ccccc2)CC1 | inactive: -0.266% |
| O=C(NCC1(N2CCCCC2)CCCCC1)c1cc(F)c(F)cc1Cl | inactive: -1.19% |
| Cc1ccccc1C(=O)NCC1(N2CCCCC2)CCCCC1 | inactive: -0.753% |
| CN(C)c1ccc(C(=O)NCC2(N(C)C)CCCCC2)cc1 | inactive: 1.76% |
| CN(C)C1CCCC1OC(=O)C(O)(c1ccccc1)c1ccccc1 (stereo unspecified) | inactive: 2.37% |
